From ChEMBL document CHEMBL1938337, “Discovery of novel, potent, and selective inhibitors of 3-phosphoinositide-dependent kinase (PDK1)” (J Med Chem, 2011) come the findings set out here.

Test [1] is described as follows: Selectivity ratio of Ki for mouse PI3Kalpha to Ki for recombinant human His-tagged PDK1 catalytic domain.
Test [2] is filed under the species Homo sapiens. Put plainly: Selectivity ratio of IC50 for GSK3-beta to Ki for recombinant human His-tagged PDK1 catalytic domain.
For test [3], the species on record is Homo sapiens. Put plainly: Selectivity ratio of IC50 for MARK1 to Ki for recombinant human His-tagged PDK1 catalytic domain.
The species entered for test [4] is Homo sapiens. As to the kind of experiment: Selectivity ratio of IC50 for TrkA to Ki for recombinant human His-tagged PDK1 catalytic domain.
In the next test the test system is SK-OV-3. Put plainly: Ratio of IC50 for PDK1-mediated AKT1 phosphorylation at T308 in human SKOV3 cells to Ki for recombinant human His-tagged PDK1 catalytic domain. In kind it is cell-based.
The subject of the next test is A549. Put plainly: Ratio of IC50 for PDK1-mediated AKT1 phosphorylation at T308 in human A549 cells to Ki for recombinant human His-tagged PDK1 catalytic domain. In kind it is cell-based.
The species named for test [5] is Homo sapiens. As to the kind of experiment: Selectivity ratio of IC50 for Aurora A to Ki for recombinant human His-tagged PDK1 catalytic domain.
The species entered for test [6] is Homo sapiens. Put plainly: Selectivity ratio of Ki for recombinant GST-tagged P70S6K to Ki for recombinant human His-tagged PDK1 catalytic domain.

In the case of `CC(C)n1cc(C(=O)c2cncc(N[C@@H]3CCC[C@@H]3c3ccc(F)cc3)n2)c2c(N)ncnc21`, the Ratio Ki in test [1] worked out at 500.

For `CC(=O)N1CC[C@@H](Nc2cncc(C(=O)c3cn(C(C)C)c4ncnc(N)c34)n2)[C@H]1c1ccc(F)cc1`, the Ratio in the test filed under Homo sapiens [2], in the test listed under Homo sapiens [3], in the test filed under Homo sapiens [4], in the test with SK-OV-3, in the test with A549 and in the test filed under Homo sapiens [5] was 100 throughout. Besides, in test [1], the Ratio Ki turned out to be 1000.

Regarding `CC(=O)N1CC[C@@H](Nc2cncc(C(=O)c3cn(C(C)C)c4ncnc(N)c34)n2)[C@H]1c1ccccc1`, the Ratio in the test filed under Homo sapiens [2], in the test filed under Homo sapiens [3], in the test listed under Homo sapiens [4], with SK-OV-3, with A549 and in the test filed under Homo sapiens [5] was 100 throughout.

Take `CC(C)n1cc(C(=O)c2cncc(N[C@@H]3CCN(C=O)[C@@H]3c3ccc(F)cc3)n2)c2c(N)ncnc21`: the Ratio in the test listed under Homo sapiens [2], in the test filed under Homo sapiens [3], in the test filed under Homo sapiens [4], in the test with SK-OV-3, with A549 and in the test filed under Homo sapiens [5] was 100 throughout.

As to `CC(C)n1cc(C(=O)c2cncc(N[C@@H]3CCO[C@@H]3c3ccc(F)cc3)n2)c2c(N)ncnc21`, the Ratio Ki in the test filed under Homo sapiens [6] amounted to 50.
